IC50 data for 1 compound are collected here from patent US20040180925A1, “Dipeptidylpeptidase-IV inhibitor” (priority 2000, published 2004).

Amino acid sequences for entries named in this document (tags omitted). Residues count along the entry.
UniProt P14740, 37-767 limits assumed: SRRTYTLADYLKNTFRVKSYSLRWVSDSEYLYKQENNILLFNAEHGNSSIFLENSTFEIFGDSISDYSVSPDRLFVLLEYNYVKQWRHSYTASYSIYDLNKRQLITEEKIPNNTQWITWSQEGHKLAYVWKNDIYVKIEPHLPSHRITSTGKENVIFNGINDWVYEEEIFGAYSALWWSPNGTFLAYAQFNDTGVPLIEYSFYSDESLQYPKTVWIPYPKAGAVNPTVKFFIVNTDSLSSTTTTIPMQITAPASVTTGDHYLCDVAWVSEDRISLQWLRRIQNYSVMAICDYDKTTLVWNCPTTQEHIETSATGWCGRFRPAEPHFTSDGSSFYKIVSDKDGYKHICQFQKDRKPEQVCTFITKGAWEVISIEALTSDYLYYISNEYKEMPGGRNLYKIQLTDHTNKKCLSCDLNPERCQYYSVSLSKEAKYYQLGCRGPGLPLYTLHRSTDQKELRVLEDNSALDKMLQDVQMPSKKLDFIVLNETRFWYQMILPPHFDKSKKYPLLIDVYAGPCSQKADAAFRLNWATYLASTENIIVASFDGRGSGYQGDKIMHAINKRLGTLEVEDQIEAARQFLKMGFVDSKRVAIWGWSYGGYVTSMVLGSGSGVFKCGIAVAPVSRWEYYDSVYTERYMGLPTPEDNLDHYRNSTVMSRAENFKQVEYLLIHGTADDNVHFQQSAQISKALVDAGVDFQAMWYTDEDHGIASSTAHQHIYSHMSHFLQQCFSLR

Counter-ions that a name gives are not always drawn.

The target in this experiment is T1, DPP-IV (Rattus norvegicus, UniProt P14740).
T1 construct: The coagulated blood was centrifuged at 3,000 rpm for 20 minutes to separate serum for use in the experiment; from tissue; host or cells: rat serum (blood from the crural aorta, coagulated and centrifuged)
Description: Test for inhibitory action against DPP-IV (rat serum, Gly-Pro-AMC fluorescence). Type of experiment: biochemical. Here is the method:
Under mild anesthesia with diethylether, a rat was incised at lower left side of the limb, and the crural aorta was cut and blood was collected. The collected blood was immediately ice-cooled. The coagulated blood was centrifuged at 3,000 rpm for 20 minutes to separate serum for use in the experiment. As reaction buffer, an aqueous solution containing HEPES (final concentration of 25 mmol/L) and sodium chloride (final concentration of 140 mmol/L) was prepared so as to give a final pH of 7.8, and used after addition of BSA (final concentration of 1%). An assay was conducted using a black, flat-bottomed 96 well plate. A test sample (2 μL) was added to each well, and the sample was added with rat serum (25 u L) and reaction buffer (25 u L) containing magnesium chloride (80 mmol/L), and the mixture was left stand at room temperature for 5 minutes. […] AMC, which was released by DPP-IV activity, was quantified by measurement of fluorescence at 460 nm which was excited at 390 nm. DPP-IV activity was calculated according to the following equation: […]
F100: Fluorescence intensity of AMC with addition of serum
F0: Fluorescence intensity of AMC without addition of serum
Fs: Fluorescence intensity of AMC with addition of a sample and serum

As usually defined, the IC50 is the midpoint of a concentration-inhibition curve. High values mean weaker potency in that assay, low ones greater potency in that assay. In the case of `CC(C)(CNc1ccc(C#N)cn1)NCC(=O)N1CCC[C@H]1C#N` [Compound 206, (S)-1-[3-(5-Cyano-2-pyridyl)amino-2-methyl-2-propylamino]acetyl-2-pyrrolidinecarbonitrile dihydrochloride], inhibition was half-maximal at 0.032 µM (IC50).
